Source: patent publication US6770652B2, “Multiple acting anti-angiogenic and cytotoxic compounds and methods for using the same” (Duquesne University of the Holy Ghost, priority 2001, dated 2004)

Protein sequences, listed by entry. Tags and fused reporters are not part of them. Residues count along the entry.
UniProt P35968, 20-1356: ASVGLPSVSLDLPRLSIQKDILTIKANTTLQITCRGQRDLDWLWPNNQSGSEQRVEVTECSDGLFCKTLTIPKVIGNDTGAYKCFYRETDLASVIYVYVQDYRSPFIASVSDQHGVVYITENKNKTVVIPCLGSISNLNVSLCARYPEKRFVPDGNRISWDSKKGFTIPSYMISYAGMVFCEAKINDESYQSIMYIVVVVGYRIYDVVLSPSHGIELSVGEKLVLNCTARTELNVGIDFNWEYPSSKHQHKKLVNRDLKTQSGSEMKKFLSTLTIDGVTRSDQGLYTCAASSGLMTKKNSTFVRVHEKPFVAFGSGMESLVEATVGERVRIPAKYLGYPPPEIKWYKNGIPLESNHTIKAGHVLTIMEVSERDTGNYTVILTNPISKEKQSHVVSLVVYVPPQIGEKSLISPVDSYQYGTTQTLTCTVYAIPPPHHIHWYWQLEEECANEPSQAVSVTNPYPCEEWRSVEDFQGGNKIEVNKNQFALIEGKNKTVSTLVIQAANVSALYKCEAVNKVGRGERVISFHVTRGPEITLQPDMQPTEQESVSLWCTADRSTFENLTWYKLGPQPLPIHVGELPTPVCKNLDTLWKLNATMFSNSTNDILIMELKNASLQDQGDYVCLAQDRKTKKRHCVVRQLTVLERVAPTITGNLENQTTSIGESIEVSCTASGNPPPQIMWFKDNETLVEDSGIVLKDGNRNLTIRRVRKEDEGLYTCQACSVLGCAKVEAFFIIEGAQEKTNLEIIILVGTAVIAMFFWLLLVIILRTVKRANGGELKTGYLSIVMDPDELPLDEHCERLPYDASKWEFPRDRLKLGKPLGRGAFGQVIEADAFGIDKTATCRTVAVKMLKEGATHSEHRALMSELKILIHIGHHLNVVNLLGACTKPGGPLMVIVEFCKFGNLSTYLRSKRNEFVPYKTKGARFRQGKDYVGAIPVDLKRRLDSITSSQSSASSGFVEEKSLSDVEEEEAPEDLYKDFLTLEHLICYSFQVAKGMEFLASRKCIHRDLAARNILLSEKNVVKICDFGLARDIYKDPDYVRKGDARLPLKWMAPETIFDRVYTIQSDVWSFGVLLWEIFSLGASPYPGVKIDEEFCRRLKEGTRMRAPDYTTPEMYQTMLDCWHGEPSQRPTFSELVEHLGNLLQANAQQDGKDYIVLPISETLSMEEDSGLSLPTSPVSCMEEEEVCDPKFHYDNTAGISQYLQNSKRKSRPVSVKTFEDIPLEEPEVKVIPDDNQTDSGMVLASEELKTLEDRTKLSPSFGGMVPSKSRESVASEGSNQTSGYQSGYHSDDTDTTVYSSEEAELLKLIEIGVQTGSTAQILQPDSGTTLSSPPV

Molecular target: Flk-1 (Homo sapiens, UniProt P35968)
Assay: Phospho-Flk1 phosphotyrosine ELISA (cytoblot) on whole U251 glioblastoma cells; Flk1 kinase inhibition

Q: With `Nc1nc(Nc2cccc(Br)c2)c2cc(Cc3ccccc3)[nH]c2n1` [YJ/AG 156] as the molecule, how does the IC50 read?
A: Its IC50 is > 50 µM.
